Antibody variant affinities, Ab-14 light chain, assay 1

Data: MIT Lincoln Laboratory AlphaSeq set, Engelhart et al. 2022, doi:10.1038/s41597-022-01779-4, as distributed in FLAb.

Binding partner: SARS-CoV-2 spike HR2 peptide, sequence PDVDLGDISGINAS.

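Phage display of a naive human antibody library on the peptide gave the parent. AAYL50 was designed without a model: most single CDR substitutions and a random sample of double and triple ones. Affinity was read by AlphaSeq, a pooled yeast mating assay with surface-displayed partners. Mating (16 h, 30 °C) was followed by selection of diploids and sequencing of their barcodes. Scores were corrected for input abundance and mapped to Kd with protein pairs of known affinity run in the same pool. Each pool was mated in three replicate cultures.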

Parent: Ab-14, a human scFv built as VH, three GGGGS repeats, VL. Only the CDRs of the light chain vary.
VH: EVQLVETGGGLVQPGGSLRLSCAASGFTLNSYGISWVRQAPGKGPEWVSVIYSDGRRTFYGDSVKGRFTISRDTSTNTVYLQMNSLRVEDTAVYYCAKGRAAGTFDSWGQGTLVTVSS
VL: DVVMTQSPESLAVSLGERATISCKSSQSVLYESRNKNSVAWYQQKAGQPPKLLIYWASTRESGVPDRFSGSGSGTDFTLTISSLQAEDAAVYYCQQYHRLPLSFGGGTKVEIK

Variants are written as CDR1, CDR2 and CDR3 of the light chain (limits as in the source). Parent: KSSQSVLYESRNKNSVA, WASTRES, QQYHRLPLS.
The read-out is the apparent dissociation constant on a log10 scale (nM): the lower, the stronger.
The mean shown is taken over the replicates in which the pair was detected.
Where no diploid with the target was found in that replicate, the entry reads "nd": below detection, most likely a poor binder, though not proof of it.
In this assay the parent's reference entry averaged 0.65; its copy inside this library read 1.68.

CDR-L1,CDR-L2,CDR-L3,"replicates, log10 nM","log10 Kd (nM), mean",signal with controls
KSSQSVLYESRNKCSYA,WASTRES,QQYHRLSLS,nd nd nd,nd,0 of 9
YSSQSVLYESRNCNSVA,WASTRES,AQYHRLPLS,nd 3.10 3.54,3.32,3 of 9 (4.40)
KESQSVLYESRNTNSVR,WASTRES,QQYHRLPLS,4.77 5.54 5.04,5.12,5 of 9 (4.81)
KSSQSVLYISRNKNSVA,WASTRES,QQYHRLPLS,2.93 3.62 3.46,3.34,1 of 9 (3.26)
KSSQSVLYESRNKNSVA,DASTRES,QQYNRLPLS,-0.42 -0.02 -0.35,-0.26,2 of 9 (5.38)
KSSSSVLYESRNKNSVC,WASTRES,IQYHRLPLS,nd nd nd,nd,1 of 9 (2.99)
KSSRSVLYESRNKSSVA,WASTGES,QQYHRLPLS,3.77 4.33 nd,4.05,2 of 9 (3.20)
KFSQSVLYESRNKNSVA,WAHHRES,QQYHRLPLS,0.44 0.53 0.56,0.51,5 of 9 (4.65)
KSSQFVLYESRPKNSVA,PASTRES,QQYHRLPLS,4.79 5.26 4.64,4.89,3 of 9 (4.14)
FSSQEVLYESRNKNSVA,WASTRES,QQYHRLSLS,1.45 1.43 1.75,1.55,1 of 9 (4.01)
KSSQSVLYESRNFNSVA,WASTGES,QQYHRLPLS,3.39 nd nd,3.39,0 of 9
KSSQSVQYESRNKNSVA,WASTRES,AQYHRLALS,1.45 1.07 0.88,1.13,0 of 9
KSSQSVLYESRNKNSVA,WASTLEF,QQYHRLDLS,2.82 2.76 3.13,2.90,2 of 9 (4.22)
KSSQSVLYESRNANSVA,WVSTRES,QQYHRLPLS,2.67 2.52 2.70,2.63,3 of 9 (4.93)
KSSDSVLYESRNKNSVA,WASTRFS,QQYARLPLS,0.94 0.81 0.85,0.87,2 of 9 (3.95)
KSSQSVLYESRNKNSTA,HASWRES,QQYHRLPLS,2.38 2.53 3.08,2.66,2 of 9 (4.63)
KSSQSTLYESENKNSEA,WASTRES,QQYHRLPLS,nd nd nd,nd,0 of 9
KSSHSVLYESRYKNSVA,WASTRES,NQYHRLPLS,nd nd nd,nd,1 of 9 (2.17)
KSSQSVLYESRNKNTVA,WASTRQS,FQYHRLPLS,3.07 nd nd,3.07,0 of 9
KSSQSVLYESRMKNSVA,WASTRES,QVYHRLPIS,1.51 1.34 1.40,1.41,4 of 9 (4.59)
KISQSVLYESRNKNSVA,WASTRES,QYYHRNPLS,4.24 nd nd,4.24,1 of 9 (3.79)
KSSQSVLYESRNKNSVA,WASTRTS,QQYMRPPLS,0.90 1.02 0.90,0.94,5 of 9 (4.28)
KSSQSVLYESRHKNSVA,WASTREI,QQYHRLSLS,nd nd nd,nd,0 of 9
KLSQSVLYESREKNNVA,WASTRES,QQYHRLPLS,-0.54 -0.14 -0.41,-0.36,2 of 9 (4.35)
KSSQSVLYRSRNKNSVA,WASHRES,QQYHRLPLS,2.76 2.51 nd,2.63,1 of 9 (4.08)
KSSQSVLYESRAKNSVA,WAETRES,QQYHRLPYS,2.39 2.56 1.95,2.30,0 of 9
KSRQSVLYESRNKNSVA,WADTRES,QQYHRCPLS,nd 3.46 nd,3.46,1 of 9 (3.78)
KSSQSCLKESRNKNSVA,WASTREE,QQYHRLPLS,nd nd nd,nd,0 of 9
KWSQSVLYESRCKNSVF,WASTRES,QQYHRLPLS,nd 2.85 nd,2.85,0 of 9
KSSQSVLYESRNANSVA,WASTYES,QQYHMLPLS,0.65 0.82 0.69,0.72,5 of 9 (4.40)
KSSQSVLYESYNKNNVA,WASTRES,QQYPRLPLS,2.20 nd nd,2.20,0 of 9
CSSQSVLYESRNKNSVA,WASTRES,QQNHRLPPS,nd nd nd,nd,5 of 9 (4.43)
KSSQSVLYESRNKNHVA,DASTRES,QQYHWLPLS,0.43 0.58 0.49,0.50,2 of 9 (4.72)
KSSQSVLYESRNKNSVA,WASTDES,QQYHRLPLS,nd nd nd,nd,0 of 9
KSSISVLYESRNKNSVA,WAGTRES,QQYHRLPLS,1.91 1.47 1.55,1.64,2 of 9 (3.26)
KSSQSVLWESRNKNSVA,WASTREY,WQYHRLPLS,nd nd nd,nd,1 of 9 (3.29)

Empty control strains, which show no peptide, gave a signal in 18% of pairings with library AAYL50; the median was 4.19 and 95% of these signals were weaker than 2.99. No background was subtracted. Also given: how often the same scFv was detected with the empty control strains, with their mean in brackets.